Data taken from patent publication US5597823A, “Tricyclic substituted hexahydrobenz [e]isoindole alpha-1 adrenergic antagonists” (priority 1995, dated 1997).

Biological target: T1, α-1A adrenoceptor (dog prostate) (Canis lupus, UniProt A0A8I3NK63)
T1 sequence (A0A8I3NK63 1-466): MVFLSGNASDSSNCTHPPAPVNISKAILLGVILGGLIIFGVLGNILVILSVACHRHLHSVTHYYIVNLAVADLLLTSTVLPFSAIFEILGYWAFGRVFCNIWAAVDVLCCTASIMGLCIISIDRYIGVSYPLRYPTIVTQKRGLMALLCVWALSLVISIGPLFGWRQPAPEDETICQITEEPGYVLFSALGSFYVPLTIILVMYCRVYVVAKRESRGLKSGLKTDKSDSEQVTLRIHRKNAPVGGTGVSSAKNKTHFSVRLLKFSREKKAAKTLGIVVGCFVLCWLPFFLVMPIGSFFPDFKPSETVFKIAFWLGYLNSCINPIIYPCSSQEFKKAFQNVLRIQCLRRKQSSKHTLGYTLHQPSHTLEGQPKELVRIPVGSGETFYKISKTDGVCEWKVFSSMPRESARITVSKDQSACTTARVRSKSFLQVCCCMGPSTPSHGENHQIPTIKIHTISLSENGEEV
Assay: Functional antagonism: phenylephrine (PE)-induced contraction of canine prostate strips
Conditions: Table 2a; vs phenylephrine; Schild plot

**Q.** With `COc1cc2nc(N3CCN(C(=O)c4ccco4)CC3)nc(N)c2cc1OC` [prazosin, reference compound] as the compound, how does the “pA2 Dog Prostate [α-1A]” value read?
**A.** 7.59
